Test results taken from US20170198353A1, “KRAS MUTATIONS AND RESISTANCE TO ANTI-EGFR TREATMENT” (Memorial Sloan- Kettering Cancer Institute, priority 2012, published 2017).

Legend:
[1] = system: patients with advanced CRC; details: cited from earlier work
[2] = system: DiFi cells; test: Drug viability assay (ATP content), parental DiFi cells; assay type: cell-based, human; details: one week, ATP assay (FIG. 5a)
Method: (§1) Cell viability was assessed by ATP content. Cells were seeded in 100 μl medium in 96-well plastic culture plates. The experimental procedures for knock in of cancer mutations, the vectors, AA V production, cell infection and screening for recombinants have already been described elsewhere.
(§2) DiFi cells were cultured in F12 medium (Invitrogen) supplemented with 5% FBS and Lim1215 cells were cultured in RPMI-1640 medium (Invitrogen) supplemented with 5% FBS and Insulin (1 μg/ml). […] For Lim1215 both protocols required at least 3 months' drug treatment. The Lim1215 parental cell line had been described previously (Whitehead, R. H., Macrae, F. A., St John, D. J. & Ma, J. A colon cancer cell line (LIM1215) derived from a patient with inherited nonpolyposis colorectal cancer. J Natl Cancer I 74, 759-765 (1985)) and was obtained from Prof Robert Whitehead, Vanderbilt University, Nashville, with permission from the Ludwig Institute for Cancer Research, Zurich, Switzerland. The genetic identity of the cell lines used in this study was confirmed by STR profiling (Cell ID, Promega)
(§3) Cetuximab was obtained from Pharmacy at Niguarda Ca′ Granda Hospital, Milan, Italy. […] Plates were incubated at 37° C. in 5% CO2 for 72-168 h, after which cell viability was assessed by ATP content using the CellTiter-Glo® Luminescent Assay (Promega Madison, Wis., USA).

[3] = system: Lim1215 E4.1 cells; test: Proliferation of Lim1215 KRAS WT subclone E4.1; assay type: cell-based, human; details: Lim1215 KRAS WT subclone E4.1 (FIG. 9C)
Method: As schematized in FIG. 9, two successive dilution cloning experiments were performed and the derivative cells (hereafter referred to as E4.1) were confirmed as KRAS wild-type by both mass spectrometry (MS) based genotyping and by 454 analysis. […] Cells were collected during intermediate passages and subjected to MS based genotyping and/or 454 analysis (FIG. 9a).
(§4) Cetuximab was obtained from Pharmacy at Niguarda Ca′ Granda Hospital, Milan, Italy. AZD6244 and GSK1059615 were purchased from Sequoia Chemicals (Pangbourne, UK) and Selleck Chemicals (Houston, USA), respectively. Cell lines were seeded in 100 μi medium at appropriate density (5×10^4, 1.5×10^4 for DiFi and Lim1215 cells, respectively) in 96-well plastic culture plates. After serial dilutions, drugs in serum free medium were added to cells and medium-only containing wells were added as controls. Plates were incubated at 37° C. in 5% CO2 for 72-168 h, after which cell viability was assessed by ATP content using the CellTiter-Glo® Luminescent Assay (Promega Madison, Wis., USA).

[4] = system: Lim1215 cells; test: Drug viability assay (ATP content), parental Lim1215 cells; assay type: cell-based, human; details: one week, ATP assay (FIG. 5a)
Method: as §1, §2, §3

[5] = system: phosphorylation of MEK and ERK; test: Western blot analysis of phospho-MEK1/2 and phospho-ERK1/2 in cetuximab-resistant DiFi cells; assay type: cell-based, human; details: DiFi-R cells with KRAS amplification, Western blot (FIG. 1d)
Method: For immunoblot analysis, total cellular proteins were extracted by solubilizing the cells in boiling SDS buffer. Western blot detection was done by enhanced chemiluminescence. The analysis of KRAS activation was performed by immunoprecipitation assay with GST-Raf1-RBD. Real time PCR was performed using an ABI PRISM® 7900HT apparatus (Applied Biosystems). KRAS protein expression was evaluated by immunohistochemistry performed on 3 μm thick tissue sections using a specific KRAS (F234) antibody (SC-30, mouse monoclonal IgG2a Santa Cruz Biotechnology). […] FISH experiments were conducted according with the histology FISH accessory kit (Dako, Glostrup, Danmark). Data are presented as the mean±SD and n=3. Statistical significance was determined by paired Student's t test. P<0.05 was considered statistically significant.
Prior to biochemical analysis, all cells were grown in their specific media supplemented with 5% FBS. Total cellular proteins were extracted by solubilizing the cells in boiling SDS buffer (50 mM Tris-HCl, pH 7.5, 150 mM NaCl, and 1% SDS). Western blot detection was done by enhanced chemiluminescence (GE Healthcare). […]

[6] = system: DiFi-R cells (KRAS amplification); test: Drug viability assay (ATP content), cetuximab-resistant DiFi cells; assay type: cell-based, human; details: DiFi-R cells with KRAS amplification (FIG. 1a)
Method: as §1, §2, §3

[7] = system: DiFi cells infected with a KRAS lentivirus; test: Viability of DiFi cells with ectopic overexpression of wild type KRAS; assay type: cell-based, human; details: ectopic overexpression of wild type KRAS in DiFi (FIG. 1e, 1f)
Method: as §4

Substance: cetuximab
- time to emergence of secondary resistance (disease progression), radiological evaluation [1]: 9-18 months
- sensitivity to EGFR inhibition (cell viability) [2]: highly sensitive
- proliferation under cetuximab treatment [3]: impaired
- sensitivity to cetuximab (cell viability) [4]: similarly sensitive
- phosphorylation of MEK and ERK [5]: partially abrogate
- induction of growth arrest [6]: unable to induce growth arrest
- resistance to cetuximab [7]: conferred resistance
